Target: Histone-lysine N-methyltransferase EZH2 (Homo sapiens, UniProt Q15910)
Experiment: Potency index, ratio of EPZ-6438 IC50 to compound IC50 for EZH2 inhibition in human Pfeiffer cells
Format: cell-based

Protein sequences, listed by entry. Tags and fused reporters are not part of them.
UniProt Q15910, whole entry, looked up: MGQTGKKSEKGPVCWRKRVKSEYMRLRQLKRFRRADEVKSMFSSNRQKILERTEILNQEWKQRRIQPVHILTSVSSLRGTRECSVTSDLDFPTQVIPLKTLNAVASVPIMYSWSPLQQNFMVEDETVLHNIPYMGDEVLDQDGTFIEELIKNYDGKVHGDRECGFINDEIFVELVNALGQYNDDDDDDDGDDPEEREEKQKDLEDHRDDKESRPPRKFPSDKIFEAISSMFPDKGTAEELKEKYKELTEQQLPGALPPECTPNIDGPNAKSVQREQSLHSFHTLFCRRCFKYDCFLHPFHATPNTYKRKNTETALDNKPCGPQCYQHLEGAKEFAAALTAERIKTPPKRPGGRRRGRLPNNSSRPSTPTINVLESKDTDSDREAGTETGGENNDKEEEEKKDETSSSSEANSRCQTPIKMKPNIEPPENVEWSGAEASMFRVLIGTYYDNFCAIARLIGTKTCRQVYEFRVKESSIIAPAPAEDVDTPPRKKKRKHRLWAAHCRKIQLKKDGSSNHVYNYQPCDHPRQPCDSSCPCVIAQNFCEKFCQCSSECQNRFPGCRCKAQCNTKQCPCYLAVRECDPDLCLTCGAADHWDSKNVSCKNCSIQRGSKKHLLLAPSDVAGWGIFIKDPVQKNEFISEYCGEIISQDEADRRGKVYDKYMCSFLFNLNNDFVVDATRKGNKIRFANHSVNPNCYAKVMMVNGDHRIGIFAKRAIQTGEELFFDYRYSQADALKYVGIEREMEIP

## CCc1c(N(CC)C2CCOCC2)cc2oc(C3CCN(C(C)C)CC3)cc2c1C(=O)NCc1c(C)cc(C)[nH]c1=O
  Ratio IC50: 3

Source: ChEMBL document CHEMBL4138300 (ACS Med Chem Lett, 2018)
